RXFP1 antagonist: blocks the human relaxin receptor RXFP1; Q9HBX9; HEK293-RXFP1, relaxin-stimulated cAMP HTRF, 30 min; active compounds read low; activity change, negative = inhibition, % at 57.5 µM; actives 0.59% (n = 350,000); AID 1259400;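 active means activity change of -60% or lower, but not beyond a set lower limit; inconclusive means change between -60% and -40%, or beyond the set limit; inactive means change above -40%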; further: on the % scale 0 is the no-effect control and ±100 the full control effect
gsp agonist: activates gsp, the McCune-Albright syndrome mutation. gsp mutant cells, cAMP HTRF, 30 min. Potency, µM (top dose mostly 76.9 µM), for the others: top-dose activation (cAMP increase), usual class: activators. actives 0.13% (n = 340,000); active means well fitted activation curve with a large enough effect; inconclusive means small, poorly fitted or top-dose-only effect, or another doubt; inactive means no such curve, though single readings can be large or run the other way; cell line not stated here;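 further: phosphodiesterase inhibitor Ro 20-1724 added with compounds to block cAMP breakdown; potency means the concentration at half of the fitted maximal effect; nearly all actives have a fitted effect of over 60% in size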
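Cells in DMEM/10% FBS with G418 were pretreated with compounds in DMSO plus […] (300 uM stock) for 30 min at 37C. cAMP was measured by HTRF (cAMP-d2 plus anti-cAMP antibody-K) after 30 min at room temperature.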
miR-21 reporter: miR-21 reporter, rising signal | AID 2288 | HeLa miR-21 FLuc reporter, luciferase, 48 h | 340,000 tested, under 10 active | Potency, µM (titrated, usually from 38.3 µM), for the others: at the top dose reporter change, positive = more light; active = well fitted rising curve with a large enough effect; inconclusive = small, poorly fitted or top-dose-only effect; inactive = no such curve, though single readings can be large or run the other way;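 also: % of control where 0% means no effect; miR-21 action dims this reporter so a rising signal means less miR-21 action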
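HeLa cells stably expressing CMV-driven firefly luciferase with a downstream miR-21 binding sequence, endogenously expressing miR-21, were treated with titrations (up to about 40uM final) for 48 hours at 37 degree Celsius. Luciferase luminescence was read after lysis.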
Luc counter: blocks Kinase-Glo luciferase, a counter-screen artifact. Q27757. Kinase-Glo luciferase, ATP luminescence, 8 min. Potency, µM (series often up to 38.3 µM), for inactives: at the top dose activity change, negative = inhibition, most hits filed as inhibitors. actives 0.28% (n = 200,000); further: potency means the concentration at half of the fitted maximal effect; on the % scale 0 is the no-effect control and ±100 the full control effect; nearly all actives have a fitted effect of over 60% in size
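Kinase-Glo luciferase light output from ATP and luciferin was measured with 10 uM ATP, within the enzyme's linear range. Buffer: 50 mM imidazole pH 7.2, 50 mM KCl, 7 mM MgCl2, 0.01% Tween 20, 0.05% BSA; luminescence read after 8 min at ambient temperature.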
gsp antag: antagonizes gsp, the McCune-Albright syndrome mutation. Potency, µM (titrated, usually from 76.9 µM), for inactives: top-dose activity change, negative = inhibition, most hits filed as inhibitors. actives 0.4% (n = 340,000). gsp-mutant cells, cAMP HTRF, 30 min; calls by dose curve; cell line not stated here;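 further: intracellular cAMP measured with PDE inhibitor Ro 20-1724 present during compound exposure; potency means the concentration at half of the fitted maximal effect; on the % scale 0 is the no-effect control and ±100 the full control effect; nearly all actives have a fitted effect of over 65% in size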
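G418-selected cells were plated in DMEM/10% FBS for 16-24 h at 37C, then treated with compounds plus the PDE inhibitor […] (300 uM solution added) for 30 min at 37C. Intracellular cAMP was measured by HTRF after 30 min lysis at room temperature.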
RXFP1 ag: agonists of human relaxin receptor RXFP1; Q9HBX9; HEK293T-RXFP1 cAMP TR-FRET, 30 min; response scale: percent of porcine relaxin response, buffer zero; Potency, µM (top dose mostly 57.5 µM), for inactives: top-dose activation, hits mostly activators; actives 0.3% (n = 370,000); further: potency means the concentration at half of the fitted maximal effect; on the % scale 0 is the no-effect control and ±100 the full control effect; nearly all actives have a fitted effect of over 60% in size
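cAMP rise read by TR-FRET after 30 min, 37C compound exposure (up to 58 uM) in RXFP1-transfected HEK293 cells with Ro 20174 present. EC50 from Hill-equation fits, with 29 nM porcine relaxin as 100% and buffer as basal.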
* = called active by the depositor; ? = inconclusive; / = no result given; [ ] = dose if it differs, or a comment. This is a sample that favours compounds with a hit; in the whole collection about 1% have one here. Unless noted, the call rests on the fitted dose curve; in most records, active means well fitted curve in the direction sought with a large enough effect; inconclusive means small, poorly fitted or top-dose-only effect, or another doubt; inactive means no such curve, though single readings can be large; an effect the other way counts as inactive or inconclusive.

1) COc1cc(CNCc2c[nH]c3ccccc23)cc(OC)c1
2) COc1cc(CNCc2cccc3ccccc23)cc(OC)c1
3) CN(C)S(=O)(=O)n1cnc([C@H]2c3c(ncn3Cc3ccccc3)C[C@H]3COC(=O)[C@@H]32)c1
4) C[C@@H](O[C@H]1OCCN(Cc2n[nH]c(=O)[nH]2)[C@H]1c1ccc(F)cc1)c1cc(C(F)(F)F)cc(C(F)(F)F)c1
5) COCCCNC(=O)c1sc2nc(C)c(C(=O)Nc3ccc(C)cc3C)c(-c3ccc(Br)cc3)c2c1N

screen / no.	1	2	3	4	5
Luc counter	0%	/	/	/	/
RXFP1 ag	0%	4%	1%	/	-3%
gsp agonist	-6%[15.4 µM]	-13%	-7%	/	/
RXFP1 antagonist	-32	1	/	-60*	0
miR-21 reporter	3%	0%	/	/	29%
gsp antag	6%	50µM*	50µM*	/	/

6) COCCCNC(=O)c1sc2nc(C)c(C(=O)Nc3ccc(Cl)cc3)c(-c3ccc(Br)cc3)c2c1N
7) Cc1ccn2c(=O)c(C(=O)NC(C)c3ccccc3)c(O)nc2c1 (stereo not drawn)
8) O=C(Nc1ccc(Cl)c(Cl)c1)Nc1ccccc1C(=O)O
9) O=C(Nc1ccccc1)Nc1cccc(Cl)c1
10) CC(=O)Nc1ccc(NC(=O)Nc2cccc(Cl)c2)cc1

screen / no.	6	7	8	9	10
Luc counter	/	/	-12%	-3%	/
RXFP1 ag	35µM*	0%	0%	-2%	0%
gsp agonist	/	/	?	-4%	23%
RXFP1 antagonist	-16	1	-7	-15	2
miR-21 reporter	-7%	-6%	15%	0%	-36%
gsp antag	/	/	?	32µM*	-4%

11) O=C(Nc1ccc(Cl)cc1)Nc1ccccc1C(=O)O
12) Cc1ccc2c(Br)cc(Br)c(O)c2n1
13) COc1cccc(NC(=O)C(C)n2c(=O)cc(C(F)(F)F)c3c(C)nn(C)c32)c1 (stereo not drawn)
14) CCOc1cc(CNc2ccc(N(C)C)cc2)cc(Br)c1OCC(=O)NC(C)(C)C
15) CCOc1cc(CNc2ccc(N3CCCCC3)cc2)cc(Br)c1OCC(=O)NC(C)(C)C

screen / no.	11	12	13	14	15
Luc counter	13µM*	/	/	3%	-3%
RXFP1 ag	4%	/	-1%	0%	3%
gsp agonist	4%[15.4 µM]	/	/	-41%	-2%
RXFP1 antagonist	-26	-5	-13	-109*	-5
miR-21 reporter	-1%	/	-1%	-9%	-12%
gsp antag	-30%	/	/	?	-9%

16) Cc1ccc2[nH]c(=O)c(CN(CCCN(C)C)C(=O)Nc3ccc(F)cc3)cc2c1
17) COc1ccc(NC(=O)N(CCCN(C)C)Cc2cc3cc(OC)ccc3[nH]c2=O)cc1
18) CCOc1ccc(CCNC(=O)c2cnc3sc(N4CCOCC4)nn3c2=O)cc1
19) CC(=O)c1c(C)[nH]c(C(=O)OCC(=O)Nc2ccc(Cl)c(S(=O)(=O)N(C)C)c2)c1C
20) Cc1cccc(C(=O)NC(=S)NNC(=O)c2ccc(Cl)cc2)c1

screen / no.	16	17	18	19	20
Luc counter	0%	-2%	/	/	-2%
RXFP1 ag	0%	-1%	3%	-1%	0%
gsp agonist	-8%[15.4 µM]	-33%	/	37%	3%
RXFP1 antagonist	-2	-5	3	-21	-97*
miR-21 reporter	-2%	-10%	-1%	?	18%
gsp antag	7.1µM*	3%	/	40µM*	-4%

21) COc1ccc(C(=O)Oc2ccc(Br)cc2C(=S)N2CCOCC2)cc1
22) C=CCc1cc(Cl)ccc1OCCCNC(C)CC (stereo not drawn)
23) CCCCC(CC)CNC(=O)CC(C)OC(=O)CCC(=O)O (stereo not drawn)
24) Cc1ccc(C(=O)n2c(=S)nc3ccccn32)cc1
25) Cc1cccc(C(=O)n2c(=S)nc3ccccn32)c1

screen / no.	21	22	23	24	25
Luc counter	/	2%	/	?	14µM*
RXFP1 ag	2%	-1%	/	0%	0%
gsp agonist	3%	-24%	/	/	-29%
RXFP1 antagonist	-67*	-63*	6	/	7
miR-21 reporter	-2%	-5%	/	-54%	-50%
gsp antag	-17%	14%	/	/	1%

26) CCN1CCN(C(=O)N[C@H](C(=O)N[C@@H]2C(=O)N3C(C(=O)O)=C(CSc4nnnn4C)CS[C@@H]23)c2ccc(O)cc2)C(=O)C1=O
27) CC(NC(=O)/C(C#N)=C/c1cccs1)c1ccccc1 (stereo not drawn)
28) CC(C)(C)c1ccc(C(=O)/C(C#N)=C/c2cccs2)cc1
29) Fc1ccc(-c2nnc(NC3=NCCCCC3)o2)cc1
30) c1ccc(-c2nnc(NC3=NCCC3)o2)cc1

screen / no.	26	27	28	29	30
Luc counter	-3%[17.1 µM]	4%	/	11µM*	?
RXFP1 ag	/	0%	3%	-1%	0%
gsp agonist	/	2%[15.4 µM]	6%	22%	9%[15.4 µM]
RXFP1 antagonist	/	-32	-87*	-7	-2
miR-21 reporter	/	-11%	-8%	?	5%
gsp antag	/	-7%	-10%	-7%	1%

31) COc1ccc(CN(C)C(=O)c2cc(-c3ccccc3)nc3ccc(C)cc23)c(OC)c1OC
32) Cc1c(CN(C)C(=O)c2cc(-c3ccccc3)nc3ccc(Br)cc23)cnn1C
33) CCOC(=O)c1c(S(=O)(=O)N2CCCC(C(=O)Nc3cccc(C#N)c3)C2)c(C)n(C)c1C (stereo not drawn)
34) COc1ccc(/C(C)=C/C(=O)O)c(OC)c1
35) Cc1cc(C)c(NC(=O)COC(=O)Cc2cccs2)c(C)c1

screen / no.	31	32	33	34	35
Luc counter	/	/	/	/	/
RXFP1 ag	1%	16µM*	-1%	/	0%
gsp agonist	-13%	/	/	/	-5%[15.4 µM]
RXFP1 antagonist	-32	/	-15	-3	-109*
miR-21 reporter	13%	19%	7%	/	/
gsp antag	?	/	/	/	8%

36) O=C(O)c1cc(C2CC2)nn1-c1ccccc1
37) Nc1cc(C2CCCC2)nn1-c1ccccc1
38) Cc1ccc(-n2c3nc(=O)[nH]c(=O)c-3cc3c(C)nn(-c4ccccc4)c32)c(C)c1
39) Cc1ccc(C)c(-n2c3nc(=O)[nH]c(=O)c-3cc3c(C)nn(-c4ccccc4)c32)c1
40) O=C(NC(=S)Nc1ccccc1)c1ccc(Br)o1

screen / no.	36	37	38	39	40
Luc counter	0%	13µM*	4%	/	-2%
RXFP1 ag	1%	3%	18%	1%	1%
gsp agonist	-22%	9%	-13%[15.4 µM]	/	-29%
RXFP1 antagonist	5	-20	-13	/	-16
miR-21 reporter	-6%	-41%	-20%	-4%	-40%
gsp antag	-11%	8%	50µM*	/	-8%

41) O=C(Nc1ccc(Nc2ccccc2)cc1)c1ccc(Br)o1
42) Cc1ccc2c(c1)c1c(n2CC(O)CNC2CCCC2)CCCC1 (stereo not drawn)
43) Cc1ccc2c(c1)c1c(n2CC(O)Cn2ccnc2C)C(=O)CCC1 (stereo not drawn)
44) CCOC(=O)N1CCN(C(=O)C2CCN(C(=O)c3ccccc3C)CC2)CC1
45) Cc1ccccc1C(=O)N1CCC(C(=O)N2CCN(c3ncccn3)CC2)CC1
46) CC(=O)Nc1ccc(Br)c2ccccc12
47) O=C(/C=C/c1ccc2c(c1)OCO2)c1ccccc1

screen / no.	41	42	43	44	45	46	47
Luc counter	-2%	/	0%	/	/	0%	-9%
RXFP1 ag	-1%	0%	-3%	/	1%	28µM*	/
gsp agonist	6%	4%	-3%	-7%[15.4 µM]	-17%	28µM*	/
RXFP1 antagonist	-68*	-82*	4	-102*	5	4	/
miR-21 reporter	-29%	?	-9%	/	/	0%	/
gsp antag	?	-6%	7%	3%	2%	12%	/

Complete entries from above:
`CC(C)(C)c1ccc(C(=O)/C(C#N)=C/c2cccs2)cc1` is entered as Luc counter = /; RXFP1 ag = 3%; gsp agonist = 6%; RXFP1 antagonist = -87*; miR-21 reporter = -8%; gsp antag = -10%
`COc1cccc(NC(=O)C(C)n2c(=O)cc(C(F)(F)F)c3c(C)nn(C)c32)c1` (stereo not drawn) is entered as Luc counter = /; RXFP1 ag = -1%; gsp agonist = /; RXFP1 antagonist = -13; miR-21 reporter = -1%; gsp antag = /

Compound activity deposited in PubChem BioAssay by National Center for Advancing Translational Sciences (NCATS).
